Data reported in ChEMBL document CHEMBL1156939.

Protein sequences, listed by entry. Tags and fused reporters are not part of them. Lines headed by an entry give the natural chain unless they say otherwise; changes in a name come on top.
UniProt P35372, whole entry, looked up: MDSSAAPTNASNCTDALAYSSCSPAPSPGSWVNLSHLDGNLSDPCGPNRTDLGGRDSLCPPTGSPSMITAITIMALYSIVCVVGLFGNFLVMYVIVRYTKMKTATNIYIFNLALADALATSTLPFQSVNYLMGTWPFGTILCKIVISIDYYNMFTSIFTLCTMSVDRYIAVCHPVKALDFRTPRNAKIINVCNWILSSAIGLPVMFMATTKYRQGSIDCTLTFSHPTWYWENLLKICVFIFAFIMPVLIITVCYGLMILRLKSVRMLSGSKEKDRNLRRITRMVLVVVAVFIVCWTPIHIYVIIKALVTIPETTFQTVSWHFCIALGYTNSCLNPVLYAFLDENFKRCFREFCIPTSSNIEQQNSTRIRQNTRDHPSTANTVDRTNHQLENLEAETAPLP
UniProt P41145: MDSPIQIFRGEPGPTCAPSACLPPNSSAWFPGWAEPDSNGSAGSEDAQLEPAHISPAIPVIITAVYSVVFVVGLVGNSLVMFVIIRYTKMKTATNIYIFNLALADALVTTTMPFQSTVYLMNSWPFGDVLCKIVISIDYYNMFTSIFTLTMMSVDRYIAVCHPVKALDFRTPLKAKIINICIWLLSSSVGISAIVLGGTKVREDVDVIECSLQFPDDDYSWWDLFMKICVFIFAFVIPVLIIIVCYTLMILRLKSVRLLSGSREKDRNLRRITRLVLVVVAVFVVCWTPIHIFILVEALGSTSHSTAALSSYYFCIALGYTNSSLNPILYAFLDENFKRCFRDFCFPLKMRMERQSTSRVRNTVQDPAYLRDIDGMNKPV

Assays:
[1] = target: Mu-type opioid receptor (Homo sapiens, UniProt P35372)
[2] = target: Kappa-type opioid receptor (Homo sapiens, UniProt P41145)

Question: What does the source list for `O=CN1CC[C@]23c4c5ccc(O)c4O[C@H]2[C@@H](O)C=C[C@H]3[C@H]1C5`?
Answer: Ki [1]: 420 nM; Ki [2]: 363 nM
